Our source for the IC50 values is ChEMBL document CHEMBL1138857, “Quinol-4-ones as steroid A-ring mimetics in nonsteroidal dissociated glucocorticoid agonists” (J Med Chem, 2006).

This test deals with T1, Progesterone receptor (Homo sapiens, UniProt P06401).
T1 sequence (P06401 whole entry): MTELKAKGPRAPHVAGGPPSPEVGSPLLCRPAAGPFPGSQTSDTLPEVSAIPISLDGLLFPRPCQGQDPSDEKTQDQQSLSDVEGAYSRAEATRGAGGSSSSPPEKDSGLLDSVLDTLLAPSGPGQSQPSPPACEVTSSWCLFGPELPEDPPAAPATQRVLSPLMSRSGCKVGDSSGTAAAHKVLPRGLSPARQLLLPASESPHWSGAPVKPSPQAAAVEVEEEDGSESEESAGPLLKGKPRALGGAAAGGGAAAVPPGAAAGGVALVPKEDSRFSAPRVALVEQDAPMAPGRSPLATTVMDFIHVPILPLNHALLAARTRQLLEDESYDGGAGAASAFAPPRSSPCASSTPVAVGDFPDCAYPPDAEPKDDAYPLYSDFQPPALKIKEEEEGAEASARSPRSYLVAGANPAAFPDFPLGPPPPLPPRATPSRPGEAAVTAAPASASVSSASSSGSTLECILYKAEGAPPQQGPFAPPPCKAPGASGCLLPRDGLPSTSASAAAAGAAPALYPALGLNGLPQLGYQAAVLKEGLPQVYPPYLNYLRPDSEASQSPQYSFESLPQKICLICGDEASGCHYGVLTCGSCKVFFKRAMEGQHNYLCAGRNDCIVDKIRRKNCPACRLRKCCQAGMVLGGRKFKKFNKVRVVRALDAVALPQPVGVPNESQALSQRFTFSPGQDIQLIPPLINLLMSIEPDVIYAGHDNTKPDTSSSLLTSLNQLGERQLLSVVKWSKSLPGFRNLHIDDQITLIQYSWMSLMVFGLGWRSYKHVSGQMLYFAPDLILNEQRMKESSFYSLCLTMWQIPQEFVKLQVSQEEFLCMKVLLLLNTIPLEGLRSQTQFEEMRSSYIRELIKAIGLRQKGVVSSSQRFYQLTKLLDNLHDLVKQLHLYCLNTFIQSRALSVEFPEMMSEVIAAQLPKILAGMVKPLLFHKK
Description: Inhibition of tetramethylrhodamine labeled RU486 binding to PR by FP assay.

`Cc1noc(=O)c2ccc(NC(=O)C(O)(CC(C)(C)c3cccc4c3OCC4)C(F)(F)F)cc12` (stereo unspecified) yielded an IC50 of 19 nM.
